# According to paper PMC4910395 (Bioorganic & medicinal chemistry, 2015):
# Chains of the proteins cited; added tags and fusions are not shown. Residues count along the entry.
# UniProt Q00959, 23-1464: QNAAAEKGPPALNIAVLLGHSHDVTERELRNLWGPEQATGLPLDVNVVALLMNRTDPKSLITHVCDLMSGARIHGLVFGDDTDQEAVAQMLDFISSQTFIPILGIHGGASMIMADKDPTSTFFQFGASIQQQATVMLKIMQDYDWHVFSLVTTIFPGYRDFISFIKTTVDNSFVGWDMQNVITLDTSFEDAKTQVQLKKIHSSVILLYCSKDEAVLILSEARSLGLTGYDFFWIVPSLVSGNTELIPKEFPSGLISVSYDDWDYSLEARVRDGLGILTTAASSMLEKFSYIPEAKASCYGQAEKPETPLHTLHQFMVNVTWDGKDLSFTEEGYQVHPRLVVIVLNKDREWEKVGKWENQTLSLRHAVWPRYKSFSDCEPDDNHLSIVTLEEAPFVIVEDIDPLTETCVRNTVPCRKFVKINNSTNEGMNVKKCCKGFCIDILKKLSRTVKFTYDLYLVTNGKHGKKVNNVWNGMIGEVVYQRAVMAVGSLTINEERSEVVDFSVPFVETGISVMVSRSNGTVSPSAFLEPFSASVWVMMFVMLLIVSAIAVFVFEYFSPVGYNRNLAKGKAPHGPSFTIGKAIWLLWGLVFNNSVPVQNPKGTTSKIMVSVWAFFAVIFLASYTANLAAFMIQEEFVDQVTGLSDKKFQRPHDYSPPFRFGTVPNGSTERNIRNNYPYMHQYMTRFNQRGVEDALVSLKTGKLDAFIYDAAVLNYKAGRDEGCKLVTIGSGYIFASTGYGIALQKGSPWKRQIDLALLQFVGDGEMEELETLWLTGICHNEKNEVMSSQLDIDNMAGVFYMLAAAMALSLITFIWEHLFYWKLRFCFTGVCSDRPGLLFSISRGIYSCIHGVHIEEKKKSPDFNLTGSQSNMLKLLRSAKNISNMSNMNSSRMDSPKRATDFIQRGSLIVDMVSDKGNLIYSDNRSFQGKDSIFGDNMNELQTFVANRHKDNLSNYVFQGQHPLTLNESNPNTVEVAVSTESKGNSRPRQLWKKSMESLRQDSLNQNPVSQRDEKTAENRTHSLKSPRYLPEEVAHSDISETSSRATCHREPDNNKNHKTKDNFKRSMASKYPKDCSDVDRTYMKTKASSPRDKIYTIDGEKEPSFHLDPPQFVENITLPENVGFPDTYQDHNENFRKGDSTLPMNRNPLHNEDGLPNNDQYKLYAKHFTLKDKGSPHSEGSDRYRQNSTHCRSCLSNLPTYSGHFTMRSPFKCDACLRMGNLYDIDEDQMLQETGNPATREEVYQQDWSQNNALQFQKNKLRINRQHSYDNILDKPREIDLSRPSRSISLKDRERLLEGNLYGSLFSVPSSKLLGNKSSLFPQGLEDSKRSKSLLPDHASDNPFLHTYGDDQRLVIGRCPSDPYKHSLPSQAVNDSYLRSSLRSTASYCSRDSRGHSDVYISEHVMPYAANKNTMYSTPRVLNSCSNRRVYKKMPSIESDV
# UniProt Q00960, 27-1482: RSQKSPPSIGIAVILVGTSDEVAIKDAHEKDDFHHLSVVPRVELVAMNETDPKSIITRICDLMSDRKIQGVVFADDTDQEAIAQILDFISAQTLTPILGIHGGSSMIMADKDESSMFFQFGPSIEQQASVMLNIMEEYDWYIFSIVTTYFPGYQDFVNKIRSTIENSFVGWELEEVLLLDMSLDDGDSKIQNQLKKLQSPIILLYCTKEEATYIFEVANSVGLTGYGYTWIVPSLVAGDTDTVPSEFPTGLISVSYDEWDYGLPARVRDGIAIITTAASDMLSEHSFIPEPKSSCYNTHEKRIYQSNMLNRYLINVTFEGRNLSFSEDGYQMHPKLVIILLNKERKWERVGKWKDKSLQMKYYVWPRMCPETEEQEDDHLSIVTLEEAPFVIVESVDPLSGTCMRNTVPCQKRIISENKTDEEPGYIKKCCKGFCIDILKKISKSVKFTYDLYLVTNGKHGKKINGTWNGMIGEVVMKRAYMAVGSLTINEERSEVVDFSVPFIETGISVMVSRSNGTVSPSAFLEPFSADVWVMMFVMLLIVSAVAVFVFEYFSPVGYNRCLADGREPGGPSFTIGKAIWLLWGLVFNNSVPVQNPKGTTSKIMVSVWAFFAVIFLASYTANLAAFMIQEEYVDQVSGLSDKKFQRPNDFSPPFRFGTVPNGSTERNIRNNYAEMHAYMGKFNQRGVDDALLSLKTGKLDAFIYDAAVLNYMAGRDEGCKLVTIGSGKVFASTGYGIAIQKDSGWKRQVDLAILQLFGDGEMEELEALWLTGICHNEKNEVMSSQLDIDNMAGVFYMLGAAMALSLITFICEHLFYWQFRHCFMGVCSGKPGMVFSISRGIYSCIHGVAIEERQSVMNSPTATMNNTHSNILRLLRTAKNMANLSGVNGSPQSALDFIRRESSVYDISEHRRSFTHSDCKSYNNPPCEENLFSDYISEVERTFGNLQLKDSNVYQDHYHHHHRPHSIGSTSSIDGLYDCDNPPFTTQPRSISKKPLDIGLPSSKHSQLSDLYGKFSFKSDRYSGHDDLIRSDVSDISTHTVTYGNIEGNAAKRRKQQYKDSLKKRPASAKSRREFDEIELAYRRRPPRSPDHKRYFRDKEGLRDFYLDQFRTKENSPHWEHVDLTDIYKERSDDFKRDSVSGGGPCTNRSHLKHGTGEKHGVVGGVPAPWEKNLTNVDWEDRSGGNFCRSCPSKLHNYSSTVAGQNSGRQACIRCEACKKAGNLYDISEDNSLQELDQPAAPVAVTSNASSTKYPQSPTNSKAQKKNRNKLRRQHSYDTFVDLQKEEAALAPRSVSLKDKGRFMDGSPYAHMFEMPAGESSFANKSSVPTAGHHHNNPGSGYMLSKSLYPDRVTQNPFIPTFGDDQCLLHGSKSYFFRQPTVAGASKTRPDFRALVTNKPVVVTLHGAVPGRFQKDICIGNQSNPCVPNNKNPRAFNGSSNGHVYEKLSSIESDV
# Biological target: NMDA receptor (NR), channel binding site labeled with [^3H]MK-801 (Rattus norvegicus, UniProt P35439+Q00959+Q00960)
# Assay: Inhibition of [^3H]MK-801 binding to rat cortical membranes
# Settings: mean ratio; spermine sensitivity
substance,measurement,value
"N,N-Bis[2-(1-amidino-3-methoxyphenoxy)ethyl]-4-methylbenzenesulfonamide dihydrochloride [compound 15]",[^3H]MK-801 Ratio IC50 (30 µM spm)/IC50 (no spm),8.11 ± 2.91 (3)
